Yeast mating assay 2: variants of the scFv Ab-95

Target peptide (SARS-CoV-2 spike, HR2 region): PDVDLGDISGINAS

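The parent was found by panning a naive human phage display library on the peptide. Library AAYL52 holds single substitutions and randomly drawn double and triple substitutions in the CDRs. The assay is AlphaSeq: two haploid yeast populations carry antibody and antigen on their surface. After mating in shaken culture at 30 °C for 16 h, diploids were selected and their barcode pairs sequenced. Each replicate has its own calibration line, from reference interactions of the BCL2 family. Each pool was mated in three replicate cultures.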

Parent: Ab-95, a human scFv built as VH, a (GGGGS)3 linker, VL. Only the CDRs of the light chain vary.
VH: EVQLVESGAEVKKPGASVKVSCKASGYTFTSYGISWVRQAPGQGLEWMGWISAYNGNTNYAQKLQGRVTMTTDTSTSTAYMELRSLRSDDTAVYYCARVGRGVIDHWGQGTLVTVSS
VL: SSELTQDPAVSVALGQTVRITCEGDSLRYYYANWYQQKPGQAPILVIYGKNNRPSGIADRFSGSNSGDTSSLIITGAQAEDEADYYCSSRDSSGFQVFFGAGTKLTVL

The parent's light chain CDRs are EGDSLRYYYAN, GKNNRPS, SSRDSSGFQVF; each variant's own CDRs replace them letter for letter. This list gathers variants with a substitution at S88 (VL, numbered from residue 1). Affinities are written as log10 Kd with Kd in nM; a lower number is a better binder. Replicates are averaged; those with no signal do not enter the mean. "nd" marks a missing value. The strain was present, yet no cells mated with the target were sequenced in any replicate, which points to weak or no binding. Nonspecific signal, from three strains lacking the peptide, appeared in 28% of pairings of library AAYL52, centred on 3.91 (5% of these signals below 2.90); values are not corrected for it. For each scFv, signals with the empty controls are counted beside the result. Parent in this assay: reference entry 2.31, copy in this library 2.25.

For EGDSRRYYYAN / GKNNRPY / TSRDSSGFQVF, the assay gave 3.50 (2 of 3 replicates; controls 3 of 9). The variant EGDSLRYYYAY / GTNNRPS / GSRDSSGFQVF showed 4.28 (3 of 3 replicates; controls 5 of 9). The variant EGDSLRAYYAN / GKNNRPS / YSRDPSGFQVF gave 2.61 (2 of 3 replicates; controls 0 of 9). The variant EGDSLRYYYAN / GKNNRPS / ASNDSSGFQVF showed 3.54 (3 of 3 replicates; controls 7 of 9). The variant EGDSLRYYYMN / GKNNRPS / YSRDSSHFQVF showed 4.85 (2 of 3 replicates; controls 0 of 9). The variant EGDSLRYYYAN / MKNNRPS / NSRDSSGFQVV showed nd (0 of 3 replicates; controls 2 of 9). For EGDSLRYYYAN / GKNNRPS / KSEDSSGDQVF, the assay gave 1.92 (3 of 3 replicates; controls 2 of 9). With EGDSLRYYYAN / GKNFRPS / ISRDSSGFQLF the result was 3.83 (2 of 3 replicates; controls 3 of 9). The variant EGDSPRYYYAN / GKNNRPS / RSRDSSEFQVF showed 3.43 (1 of 3 replicates; controls 3 of 9).

The variant EGDSLRMYYAN / GKNNRPS / YSRDSSGFQVF gave 2.99 (3 of 3 replicates; controls 5 of 9). The variant TGDSLRYYYAN / GKNNRPA / TSRDSSGFQVF gave 3.42 (2 of 3 replicates; controls 2 of 9). The variant EGDSLRYYYAN / GKNNRPS / RARDSSGFQVF gave 4.22 (1 of 3 replicates; controls 1 of 9). With EGDSLRYYYAN / GKNNRPS / DPRDSSVFQVF the result was 1.86 (3 of 3 replicates; controls 2 of 9). The variant EGDSLRYYYAN / GCNNRPS / FSRDSSGFQVF showed 4.34 (3 of 3 replicates; controls 4 of 9). The variant EGDRLRYYYAN / GENNRPS / TSRDSSGFQVF showed 2.06 (3 of 3 replicates; controls 1 of 9). For EGDSLRYYYAR / GKNNRPS / NSRDSSGFQVF, the assay gave 3.69 (2 of 3 replicates; controls 1 of 9). The variant EGDSQRYYYAN / GKNCRPS / DSRDSSGFQVF gave 3.12 (3 of 3 replicates; controls 5 of 9). The variant EGDSLRYMYAN / GKQNRPS / DSRDSSGFQVF showed 3.51 (1 of 3 replicates; controls 6 of 9).

The variant GGDHLRYYYAN / GKNNRPS / CSRDSSGFQVF showed 2.79 (3 of 3 replicates; controls 4 of 9). The variant EGYSLRYYHAN / GKNNRPS / ESRDSSGFQVF showed 1.84 (3 of 3 replicates; controls 2 of 9). With EGDSLRYYYAN / GKNNRPS / WSRDSSWFQVF the result was 2.18 (3 of 3 replicates; controls 3 of 9). For EGDSLRYMYAN / GTNNRPS / MSRDSSGFQVF, the assay gave 1.17 (3 of 3 replicates; controls 1 of 9). The variant EGDSLRYGYAN / GKNNRPS / LSRDSSLFQVF showed 1.66 (3 of 3 replicates; controls 1 of 9). The variant EGDSLRCYYAN / GKNNRPS / DSRDSSGGQVF showed 3.67 (3 of 3 replicates; controls 4 of 9). With EGDSLRYYYAN / GKNNRCS / EQRDSSGFQVF the result was 5.26 (1 of 3 replicates; controls 3 of 9). With EGDSLRYYYAV / GKNNRPS / KSRDSSGRQVF the result was 4.20 (1 of 3 replicates; controls 2 of 9). For QGVSLRYYYAN / GKNNRPS / NSRDSSGFQVF, the assay gave 2.35 (3 of 3 replicates; controls 4 of 9).

The variant EGDSLRYYYAN / GKNNRMW / QSRDSSGFQVF gave nd (0 of 3 replicates; controls 3 of 9). The variant EGDSLRYYYAN / GSNNRPS / NCRDSSGFQVF showed 2.84 (3 of 3 replicates; controls 3 of 9). For ERDSLRYTYAN / GKNNRPS / QSRDSSGFQVF, the assay gave 2.64 (3 of 3 replicates; controls 4 of 9).

Values reported by Engelhart et al. 2022, doi:10.1038/s41597-022-01779-4 (FLAb copy).